For orientation: IC50 means the concentration that gives 50% inhibition.

Experiment [1] concerns the target T1, Protein kinase C epsilon type (Homo sapiens, UniProt Q02156).
T1 sequence (Q02156 whole entry): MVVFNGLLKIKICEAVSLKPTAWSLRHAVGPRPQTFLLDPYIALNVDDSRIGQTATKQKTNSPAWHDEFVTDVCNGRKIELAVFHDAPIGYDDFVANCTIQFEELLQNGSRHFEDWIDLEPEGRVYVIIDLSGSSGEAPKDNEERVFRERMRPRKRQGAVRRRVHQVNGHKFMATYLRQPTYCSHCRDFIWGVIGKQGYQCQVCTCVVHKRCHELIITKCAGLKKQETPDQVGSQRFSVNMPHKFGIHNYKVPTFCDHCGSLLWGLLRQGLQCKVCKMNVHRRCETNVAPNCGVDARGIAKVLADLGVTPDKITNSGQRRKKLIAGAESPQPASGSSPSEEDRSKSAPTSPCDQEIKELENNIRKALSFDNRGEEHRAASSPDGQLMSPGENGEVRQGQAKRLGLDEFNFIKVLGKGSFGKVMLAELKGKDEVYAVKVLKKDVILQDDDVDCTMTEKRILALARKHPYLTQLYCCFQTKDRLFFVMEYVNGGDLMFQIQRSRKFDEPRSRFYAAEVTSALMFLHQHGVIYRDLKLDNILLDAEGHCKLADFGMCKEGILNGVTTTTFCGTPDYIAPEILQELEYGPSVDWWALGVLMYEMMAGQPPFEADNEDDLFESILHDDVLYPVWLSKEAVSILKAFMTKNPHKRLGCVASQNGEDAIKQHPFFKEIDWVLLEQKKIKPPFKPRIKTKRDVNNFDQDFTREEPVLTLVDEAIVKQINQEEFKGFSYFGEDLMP
The experiment in a line: Inhibition of Protein kinase C epsilon.

The target in experiment [2] is cAMP-dependent protein kinase (PKA) (Homo sapiens, UniProt P22694+P17612+P22612). The experiment in a line: Inhibition of Protein Kinase A. Format: protein assay.

As to `O=C(N[C@@H]1CNCCCC1OC(=O)c1cc(O)c(C(=O)c2c(O)cccc2C(=O)O)c(O)c1)c1ccc(O)cc1` (mixture of isomers), the concentration for half-maximal inhibition (IC50) in experiment [1] came out at 44 nM.

The molecule `O=C(NC1CCC[C@@H]1OC(=O)c1cc(O)c(C(=O)c2c(O)cccc2C(=O)O)c(O)c1)c1ccc(O)cc1` (mixture of isomers) displayed an IC50 in experiment [2] of 30 nM.
